Experimental data taken from patent publication US20220265727A1.

Biological target: human CTLA-4 on CTLA-4 effector cells (Jurkat T cells) (human) (UniProt P16410)
Test: cell-based or functional assay
Set-up: unit not given beside the values

Row | EC50, CTLA-4 Blockade Bioassay (luciferase activity) | Substance
1 | 1.57 | ipilimumab biosimilar, positive control (Yervoy, Bristol-Myers Squibb SA) (antibody)
2 | 1.52 | myoblast-produced anti-CTLA4 IgG (ipilimumab variable regions in a human IgG1 heavy chain and human kappa light chain backbone) (antibody)
